Calls of active or inactive are those of the source. No cut-off for these calls is given here.

Amino acid sequences for entries named in this document (tags omitted).
UniProt P34913, whole entry: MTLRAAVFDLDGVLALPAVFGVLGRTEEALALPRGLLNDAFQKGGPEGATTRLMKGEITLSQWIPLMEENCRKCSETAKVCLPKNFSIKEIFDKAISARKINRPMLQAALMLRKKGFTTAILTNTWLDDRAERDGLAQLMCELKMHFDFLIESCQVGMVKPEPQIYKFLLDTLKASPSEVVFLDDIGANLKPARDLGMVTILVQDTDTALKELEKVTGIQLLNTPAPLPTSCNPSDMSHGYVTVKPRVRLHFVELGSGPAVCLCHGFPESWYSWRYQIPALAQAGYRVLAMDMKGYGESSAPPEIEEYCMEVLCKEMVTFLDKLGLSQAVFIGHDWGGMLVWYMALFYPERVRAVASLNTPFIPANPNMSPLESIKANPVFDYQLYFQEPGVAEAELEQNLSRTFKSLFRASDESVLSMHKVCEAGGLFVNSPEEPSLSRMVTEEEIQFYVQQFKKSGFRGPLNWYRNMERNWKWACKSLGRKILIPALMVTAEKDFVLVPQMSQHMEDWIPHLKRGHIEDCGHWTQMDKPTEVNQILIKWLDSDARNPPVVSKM

Assay [1] has as its target T1, Bifunctional epoxide hydrolase 2 (Homo sapiens, UniProt P34913). The assay is described as follows: Inhibition of human recombinant soluble epoxide hydrolase.
Assay [2] concerns the target T1, Bifunctional epoxide hydrolase 2. The assay is described as follows: Reversible inhibition of human recombinant soluble epoxide hydrolase assessed as residual enzyme activity at 10 uM after 15 mins relative to control.

With `C[C@]12CC[C@@H]3c4ccc(O)cc4C[C@@H](CCCCCCCCC[S+]([O-])CCCC(F)(F)C(F)(F)F)[C@H]3[C@@H]1CC[C@@H]2O` (some centres not stated) [FULVESTRANT], the inhibition result in assay [1] is “Active”. Also, in assay [2], the Activity was over 80%.

The values above are taken from ChEMBL document CHEMBL2396615, “Inhibition of soluble epoxide hydrolase by fulvestrant and sulfoxides” (Bioorg Med Chem Lett, 2013).
